Experimental findings from ChEMBL document CHEMBL1149259, “Potent N-(1,3-thiazol-2-yl)pyridin-2-amine vascular endothelial growth factor receptor tyrosine kinase inhibitors with excellent pharmacokinetics and low affinity for the hERG ion channel” (J Med Chem, 2004) are described below.

The species named for assay [1] is Homo sapiens. Put plainly: Selectivity ratio of IC50 for CDK2 to IC50 for KDR.
The species named for assay [2] is Homo sapiens. Put plainly: Selectivity ratio of IC50 for EGFR to IC50 for KDR.
For assay [3], the species on record is Homo sapiens. Put plainly: Selectivity ratio of IC50 for InsulinR to IC50 for KDR.
Assay [4] is filed under the species Homo sapiens. Put plainly: Selectivity ratio of IC50 for CDK4 to IC50 for KDR.
Assay [5] is filed under the species Homo sapiens. Put plainly: Selectivity ratio of IC50 for Flt3 to IC50 for KDR.
The species named for assay [6] is Homo sapiens. Put plainly: Selectivity ratio of IC50 for Lck to IC50 for KDR.
The species named for assay [7] is Homo sapiens. Put plainly: Selectivity ratio of IC50 for FynT to IC50 for KDR.

`CNC(=O)N1CCN(Cc2ccnc(Nc3ncc(C#N)s3)c2)CC1`: the Ratio IC50 in the assay listed under Homo sapiens [1] is 328; in the assay listed under Homo sapiens [2] it was over 1600; in the assay listed under Homo sapiens [3], 560; in the assay filed under Homo sapiens [4], 61; in the assay listed under Homo sapiens [5] it was 28; in the assay listed under Homo sapiens [6], 950. In addition, the Ratio IC50 in the assay listed under Homo sapiens [7] is 850.
